In US10821151B2, “Compositions and methods for treating cancer and persistent viral infections” (SUSAVION BIOSCIENCES, INC., priority 2015, dated 2020):

Tested on: immune cells in the peritoneal cavity
Test: peritoneal immune cell populations by flow cytometry after subcutaneous injection
Conditions: 1 nanomole per gram subcutaneously on day 0, 2 and 4; peritoneal lavage

[NQHTPRGGGS]4K3-NH2 [SV6D]
populations of DCs, NK cells, CD3+, CD4+ and CD8+ T cells, and B cells, including CD69+: increased several-fold
